Test results as given in patent US20170311602A1, “METHODS AND COMPOSITIONS FOR THE CONTROL OF FUNGAL PATHOGENS IN CROP PLANTS” (Monsanto Technology LLC, priority 2014, published 2017).
Where two headings read alike, the source gives them in different places.

Test system: Colletotrichum graminicola strains CG1 and BF0911
Conditions: 22 days after inoculation
[1] = Strain BF0911, 30 g a.i./100 kg seeds, untreated inoculated control rating 3
[2] = Strain BF0911, 60 g a.i./100 kg seeds, untreated inoculated control rating 3
[3] = Strain BF0911, 120 g a.i./100 kg seeds, untreated inoculated control rating 3
[4] = Strain CG1, 30 g a.i./100 kg seeds, control rating 3
[5] = Strain CG1, 60 g a.i./100 kg seeds, control rating 3
[6] = Strain CG1, 120 g a.i./100 kg seeds, control rating 3

Compound | Efficacy [1] [% abb] | Efficacy [2] [% abb] | Efficacy [3] [% abb] | Efficacy [4] [% abb] | Efficacy [5] [% abb] | Efficacy [6] [% abb]
CO/N=C(/C1=NOCCO1)c1ccccc1Oc1ncnc(Oc2ccccc2Cl)c1F [Fluoxastrobin, fluoxastrobin] | 0 | 0 | 30 | 11 | 22 | 11
OC(Cc1ccccc1Cl)(Cn1nc[nH]c1=S)C1(Cl)CC1 (stereo not drawn) [Prothioconazole, prothioconazole] | 0 | 0 | 20 | 0 | 6 | 17
